Test results published in patent US20230406906A1, “SERPIN PEPTIDES AND METHODS OF USING THE SAME” (SERPIN PHARMA, LLC, priority 2022, published 2023).

Key:
STAT6 = assay: IL-13 stimulated STAT6 phosphorylation in esophageal EPC2 cells (western blot); assay type: cell-based, Human
Protocol: Esophageal EPC2 cells were treated with vehicle (ddw), A1AT or SP163M. Cells were collected at time-points indicated and western blot analysis of phospho-specific STAT6 was analyzed. […] Using CRISPER/CAS9 technology, an LRP1 knockout esophageal EPC2 cell line was created.

CD11b = assay: Immunohistochemistry of L4 DRGs two days after PNL, CD11b; assay type: in vivo, mice
Protocol: (§1) Neuropathic pain model: Mice (n=30) were randomly assigned to two different groups: SP163M (2 μg/g; s.c. 100 μl) and vehicle (H20 s.c. 100 μl). Mice were treated 1 h prior to partial nerve ligation (PNL) and then daily at least 1 h prior to behavior testing for 2 weeks. PNL studies were performed as previously disclosed^59 and adapted for mice.^57 Male mice were anesthetized with 3% isoflurane (Vetone, USA) in 1.5 L/min oxygen (Praxair, USA) and maintained with 2.5% isoflurane. An incision was made along the long axis of the femur. The sciatic nerve was exposed at mid-thigh level by separating the biceps femoris and the gluteus superficialis and then carefully cleared of surrounding connective tissue. A 9-0 nylon suture (Ethicon, Inc., Somerville, NJ, USA) was inserted into the nerve and ligated so that the one-third to one-half of the nerve was included. The muscle and skin layers were closed using Reflex7 7 mm stainless steel wound clips (CellPoint Scientific, Inc., Gaithersburg, MD, USA). For behavior testing, mice were acclimated, and baseline tested for one week prior to PNL. […] Filaments were presented in a consecutive fashion either ascending or descending using the up-down method as previously disclosed^60 and modified for mice.^57,61 The filament that caused paw withdrawal 50% of the time (the 50% PWT) was determined. […]

GFAP = assay: Immunohistochemistry of L4 DRGs two days after PNL, GFAP; assay type: in vivo, mice
Protocol: as §1

C57BL6 mice = assay: Intraplantar formalin test; assay type: in vivo
Protocol: Intraplantar formalin and capsaicin models: Male mice (n=33) were acclimated to the behavior testing facility for at least 60 min. Mice were randomized into four groups SP163M (0.02, 0.2, and 2 μg/g) or vehicle were administered subcutaneously. After 1 h, 20 μl of 2.5% formalin was injected subcutaneously into the plantar area of left hind paw. Immediately after formalin injection, mice were placed in a Plexiglas box (22×22×14 cm). Two observers, blinded to treatments, recorded the total amount of time mice spent on licking and flinching the left hind paw every 5 min over a one-hour period. To quantify the formalin response, activity during early phase (0-10 min) and later phase (15-50 min) were examined separately.

TSLP = assay: Poly IC induced TSLP in HaCat cells (ELISA); assay type: cell-based, human; conditions: Poly IC 50 μg/ml 24 hours, 100 μg/ml pretreatment
Protocol: Cells were pretreated with either vehicle or SP163M (100 μg/ml). TSLP was measured in the supernatant via ELISA (p=0.0045 vs. vehicle treated Poly IC induced cells). FIG. 10B: HaCat cells treated as in FIG. 10A were analyzed via the CellTiter-Glo® Luminescent Cell Viability Assay by Promega. The percent change from untreated (no Poly IC) cells were compared between SP163M vs. vehicle treated poly IC induced control (p=0.0068). FIG. 10C: HaCat cells were insulted with TNFα and immunoblotted for phospho-IkBa (Ser32). GAPDH served as a loading control and signal normalization.
In this model of dermal inflammation, SP163M decreased a key cytokine (TSLP) that controls allergic responses, and protected cells from death.

CCCC[C@H](NC(=O)[C@H](CC(C)C)NC(=O)[C@H](Cc1ccccc1)NC(=O)[C@@H](NC(=O)[C@H](Cc1ccccc1)NC(=O)[C@@H]1CCCN1C(=O)[C@H](CCCCN)NC(=O)[C@H](CC(N)=O)NC(=O)[C@H](Cc1ccccc1)NC(=O)[C@H](CCCCN)NC(=O)[C@@H](NC(C)=O)C(C)C)C(C)C)C(=O)N[C@H](C(=O)N[C@@H](CCC(=O)O)C(=O)N[C@@H](CCC(N)=O)C(=O)N[C@@H](CC(N)=O)C(=O)N[C@H](C(=O)N[C@@H](CCCCN)C(N)=O)[C@@H](C)O)[C@@H](C)CC [SP163M, Ac-VKFNKPFVFLNIeIEQNTK-NH2]
STAT6 phosphorylation (STAT6; EPC2 cells, 30 minutes post IL-13 induction): not in SP163M treated cells | persistence of the reduction in STAT6 phosphorylation (STAT6; EPC2 cells, post-treatment): persisted for several hours post-treatment | phospho-STAT6 expression in control cells (with LRP1) (STAT6; EPC2 control cells): capable of reducing phospho-STAT6 expression | phosphorylated STAT6 in LRP1 knockout cell line (STAT6; LRP1 knockout EPC2 cells (CRISPER/CAS9)): not capable of reducing phosphorylated STAT6 | CD11b levels in DRGs relative to vehicle-treated DRGs (CD11b): approximately five-fold | decrease in GFAP levels in DRGs (GFAP): 6 fold | licking time, early phase (0-10 min) (C57BL6 mice; 0.02 μg/g s.c. 1 h before 2.5% formalin): 80 s | AUC of licking time, late phase (C57BL6 mice; 0.02 μg/g vs vehicle, Tukey's post hoc test): p=ns | licking time, early phase (0-10 min) (C57BL6 mice; 2 μg/g s.c. 1 h before 2.5% formalin): 60 s | peak late phase start time (C57BL6 mice; 2 μg/g, vehicle peak after 25 min): 30 min | AUC of licking time, late phase (15-50 min) (C57BL6 mice; 0.2 and 2 μg/g vs vehicle): both middle (0.2 μg/g) and high (2 μg/g) doses reduced licking time in the late phase compared to vehicle controls | AUC of licking time, early phase (C57BL6 mice; low (0.02 μg/g) and high (2 μg/g) dose vs vehicle): both the low and high SP163M treatment groups reached statistical significance | TSLP in supernatant (TSLP): a decrease of both TSLP
